Paper PMC8820617, “Machine learning-driven identification of drugs inhibiting cytochrome P450 2C9” (PLoS Computational Biology, 2022)

Protein sequences, listed by entry. Tags and fused reporters are not part of them.
UniProt P11712, whole entry: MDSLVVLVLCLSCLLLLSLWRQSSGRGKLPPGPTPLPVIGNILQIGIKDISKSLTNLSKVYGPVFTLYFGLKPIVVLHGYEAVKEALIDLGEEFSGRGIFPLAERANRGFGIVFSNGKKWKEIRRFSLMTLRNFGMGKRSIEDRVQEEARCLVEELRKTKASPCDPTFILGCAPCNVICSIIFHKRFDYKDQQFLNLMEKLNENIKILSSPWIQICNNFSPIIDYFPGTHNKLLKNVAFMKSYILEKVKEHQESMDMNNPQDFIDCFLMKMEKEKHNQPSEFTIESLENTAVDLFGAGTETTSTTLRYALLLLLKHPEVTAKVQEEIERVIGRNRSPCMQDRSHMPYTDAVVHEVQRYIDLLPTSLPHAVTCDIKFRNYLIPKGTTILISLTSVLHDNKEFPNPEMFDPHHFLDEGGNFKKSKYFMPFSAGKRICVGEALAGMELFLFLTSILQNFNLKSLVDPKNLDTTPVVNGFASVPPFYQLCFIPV

Biological target: CYP2C9 supersomes (Homo sapiens, UniProt P11712)
Experiment: Inhibition of CYP2C9 on recombinant supersomes (diclofenac 4-hydroxylation, LC/MS-MS)
Conditions: IC50 values determined with CYP2C9 supersomes, substrate diclofenac 5 μM
Protocol: A CYP2C9-specific substrate (diclofenac) and recombinant supersomes were incubated with and without the study compounds (according to the protocol optimized by the Service Provider Admescope (Finland)). The concentrations of the studied compounds were 0.3, 1, 3, 10, 20, 30, 50, 60, 70, 90 and 100 μM. […] The enzymatic reactions were started after 6 min of preincubation by adding NADPH and terminated after 15 min by adding ice-cold acetonitrile. The supernatant was collected and centrifuged for analyses. The samples were analyzed by LC/MS-MS to determine the level of metabolites in the absence and presence of a candidate molecule. Spiked standard samples were not used, but quantification based on relative peak areas was performed (solvent control = 100%). The disappearance was evaluated as relative LC/MS peak areas, and the 0-min time points were marked as 100%. The disappearance rate was used to calculate the half-life and in vitro clearance. For details of the method, see S2 Text.
Details of analytical method for inhibition tests using CYP2C9 supersomes and calculation of IC50
Test compound concentrations: Test compound Test concentrations (µM)
Diclofenac at 5 µM for CYP2C9
Substrates and concentrations:
Instrumentation: Waters Acquity UPLC + Thermo TSQ Endura triple quadrupole MS
The IC50 value for the test compound was determined by fitting following equation to the data […]

Cc1nc(Nc2ncc(C(=O)Nc3c(C)cccc3Cl)s2)cc(N2CCN(CCO)CC2)n1 [Dasatinib]
IC50: 85 µM
